Tested on: QTc interval
Assay: ASSIST-1 and ASSIST-2 Phase III trials, QTc safety
Details: ASSIST-1 and ASSIST-2 treatment arms; iclaprim 0.8 mg/kg over 0.5 hours q12h 7 to 10 days

SMILES: CC(=O)NC[C@H]1CN(c2ccc(N3CCOCC3)c(F)c2)C(=O)O1 [linezolid]
- adverse events related to QTc prolongation: 2 cases
